Values of other authors in article PMC5218874.

Target: Adenylate cyclase toxin (ACT) AC domain (Bordetella pertussis) (UniProt P0DKX7)

Calmodulin (from UniProt P0DP23)
Kd: 2 nM
